Experimental data taken from patent US11401286B2 (Tetra Discovery Partners, LLC, priority 2012, dated 2022).
Where two headings read alike, the source gives them in different places.

What was measured:
[1] = tested on: human PDE4D7 containing UCR1 activating mutation S54D (PDE4D7*); details: for Selectivity PDE4 isoforms D/D*: ratio PDE4D7/PDE4D7*
[2] = biological target: human PDE4D7 containing UCR1 activating mutation S54D (PDE4D7*) (Homo sapiens (Human), UniProt Q08499, S129D); assay: biochemical

| Compound | IC50 [2] [nM] | Selectivity PDE4 isoforms D/D* [1] | Selectivity PDE4 isoforms B*/D* ([1]; ratio PDE4B1*/PDE4D7*) | Selectivity PDE4 isoforms B*/D* [1] |
| --- | --- | --- | --- | --- |
| NC(=O)Cc1ccc(Nc2nc(-c3ccc(Cl)s3)nc3c2CCC3)cc1 [Example 20, 2-[4-[[2-(5-chloro-2-thienyl)-6,7-dihydro-5H-cyclopenta[d]pyrimidin-4-yl]amino]phenyl]acetamide] | < 1000 | + (+ indicates a selectivity of the given ratio of isoforms of >10×) |  |  |
| O=C(O)Cc1ccc(Nc2nc(-c3cccc(F)c3)nc(C3CC3)n2)cc1 [Example 47, 2-(4-((4-cyclopropyl-6-(3-fluorophenyl)-1,3,5-triazin-2-yl)amino)phenyl)acetic acid] | > 1000 |  | − (− indicates a selectivity of ≤10×) |  |
| O=C(O)COc1ccc(Nc2cc(-c3cccc(Cl)c3)nc3c2CCC3)cc1 [Example 4, 2-[4-[[2-(3-Chlorophenyl)-6,7-dihydro-5H-cyclopenta[b]pyridin-4-yl]amino]phenoxy]acetic acid] | > 1000 |  |  | + (key: + indicates a selectivity of the given ratio of isoforms of >10×; − indicates a selectivity of ≤10×) |
| O=C(O)Cc1ccc(Nc2nc(-c3ccc(Cl)cc3)nc(C3CC3)n2)cc1 [Example 37, 2-(4-((4-(4-chlorophenyl)-6-cyclopropyl-1,3,5-triazin-2-yl)amino)phenyl)acetic acid] | > 1000 | − (− indicates a selectivity of ≤10×) | − (− indicates a selectivity of ≤10×) |  |
| CC(C)c1nc(Nc2ccc(CC(=O)O)cc2)nc(-c2ccc(Cl)s2)n1 [Example 25, 2-(4-((4-(5-chlorothiophen-2-yl)-6-isopropyl-1,3,5-triazin-2-yl)amino)phenyl)acetic acid] | > 1000 | − (− indicates a selectivity of ≤10×) |  |  |
| O=C(O)Cc1ccc(Oc2nc(-c3cccc(Cl)c3)nc(C3CC3)n2)cc1 [Example 43, 2-(4-((4-(3-chlorophenyl)-6-cyclopropyl-1,3,5-triazin-2-yl)oxy)phenyl)acetic acid] | > 1000 | − (− indicates a selectivity of ≤10×) | − (− indicates a selectivity of ≤10×) |  |
| CCc1nc(Nc2ccc(C(=O)O)cc2)nc(-c2ccc(Cl)s2)n1 [Example 30, 4-(4-(5-chlorothiophen-2-yl)-6-ethyl-1,3,5-triazin-2-ylamino)benzoic acid] | < 1000 | − (− indicates a selectivity of ≤10×) | − (− indicates a selectivity of ≤10×) |  |
| CCc1nc(Oc2ccc(C(N)=O)cc2)nc(-c2cccc(Cl)c2)n1 [Example 63, 4-((4-(3-chlorophenyl)-6-ethyl-1,3,5-triazin-2-yl)oxy)benzamide] | > 1000 |  | − (− indicates a selectivity of ≤10×) |  |
| N#CCc1ccc(Nc2cc(-c3cccc(Cl)c3)nc3c2CCC3)cc1 [Example 1, 2-[4-[[2-(3-Chlorophenyl)-6,7-dihydro-5H-cyclopenta[b]pyridin-4-yl]amino]phenyl]acetonitrile] | < 1000 |  | − (− indicates a selectivity of ≤10×) |  |
| CCc1c(Nc2ccc(CC(=O)O)cc2)cc(-c2cccc(Cl)c2)nc1C [Example 7, 2-[4-[[6-(3-Chlorophenyl)-3-ethyl-2-methyl-4-pyridyl]amino]phenyl]acetic acid] | > 1000 | − (− indicates a selectivity of ≤10×) | − (− indicates a selectivity of ≤10×) |  |
| CC(C)c1nc(Nc2ccc(F)cc2)nc(-c2ccc(Cl)s2)n1 [Example 26, 4-(5-chlorothiophen-2-yl)-N-(4-fluorophenyl)-6-isopropyl-1,3,5-triazin-2-amine] | < 1000 |  | − (− indicates a selectivity of ≤10×) |  |

Further lines, with some results ahead:

| IC50 [2] [nM] | Compound | Selectivity PDE4 isoforms D/D* [1] | Selectivity PDE4 isoforms B*/D* ([1]; ratio PDE4B1*/PDE4D7*) | Selectivity PDE4 isoforms B*/D* [1] |
| --- | --- | --- | --- | --- |
| < 1000 | CCc1nc(Nc2ccc(CC(=O)O)cc2)nc(-c2ccc(Cl)s2)n1 [Example 27, 2-(4-((4-(5-chlorothiophen-2-yl)-6-ethyl-1,3,5-triazin-2-yl)amino)phenyl)acetic acid] | − (− indicates a selectivity of ≤10×) |  |  |
| < 1000 | CCc1nc(Nc2ccc(F)cc2)nc(-c2ccc(Cl)s2)n1 [Example 28, 4-(5-chlorothiophen-2-yl)-6-ethyl-N-(4-fluorophenyl)-1,3,5-triazin-2-amine] | − (− indicates a selectivity of ≤10×) | − (− indicates a selectivity of ≤10×) |  |
| < 1000 | CC(C)c1nc(Nc2ccc(C(=O)O)cc2)nc(-c2ccc(Cl)s2)n1 [Example 29, 4-(4-(5-chlorothiophen-2-yl)-6-isopropyl-1,3,5-triazin-2-ylamino)benzoic acid] | − (− indicates a selectivity of ≤10×) | − (− indicates a selectivity of ≤10×) |  |
| < 1000 | CCc1nc(Nc2ccc(C#N)cc2)nc(-c2cccc(Cl)c2)n1 [Example 51, 4-(4-(3-chlorophenyl)-6-ethyl-1,3,5-triazin-2-ylamino)benzonitrile] | + (+ indicates a selectivity of the given ratio of isoforms of >10×) | − (− indicates a selectivity of ≤10×) |  |
| < 1000 | O=C(O)c1ccc(Nc2cc(-c3cccc(Cl)c3)nc3c2CCC3)cc1 [Example 5, 4-[[2-(3-Chlorophenyl)-6,7-dihydro-5H-cyclopenta[b]pyridin-4-yl]amino]benzoic acid] | + (+ indicates a selectivity of the given ratio of isoforms of >10×) |  |  |
| < 1000 | CCc1nc(Nc2ccc(CC#N)cc2)nc(-c2cccc(Cl)c2)n1 [Example 52, 2-(4-(4-(3-chlorophenyl)-6-ethyl-1,3,5-triazin-2-ylamino)phenyl)acetonitrile] | + (+ indicates a selectivity of the given ratio of isoforms of >10×) | + (+ indicates a selectivity of the given ratio of isoforms of >10×) |  |
| < 1000 | CCc1nc(Nc2ccc(-c3nn[nH]n3)cc2)nc(-c2cccc(Cl)c2)n1 [Example 54, N-(4-(2H-tetrazol-5-yl)phenyl)-4-(3-chlorophenyl)-6-ethyl-1,3,5-triazin-2-amine] |  | − (− indicates a selectivity of ≤10×) |  |
| < 1000 | CCc1nc(Oc2ccc(CC(N)=O)cc2)nc(-c2cccc(Cl)c2)n1 [Example 61, 2-(4-((4-(3-chlorophenyl)-6-ethyl-1,3,5-triazin-2-yl)oxy)phenyl)acetamide] | + (+ indicates a selectivity of the given ratio of isoforms of >10×) | + (+ indicates a selectivity of the given ratio of isoforms of >10×) |  |
| < 1000 | CCc1nc(Nc2ccc(CC(=O)O)cc2)nc(-c2cccc(F)c2)n1 [Example 48, 2-(4-((4-ethyl-6-(3-fluorophenyl)-1,3,5-triazin-2-yl)amino)phenyl)acetic acid] |  | − (− indicates a selectivity of ≤10×) |  |
| < 1000 | O=C(O)c1ccc(Nc2nc(-c3ccc(Cl)cc3)nc(C3CC3)n2)cc1 [Example 38, 4-((4-(4-chlorophenyl)-6-cyclopropyl-1,3,5-triazin-2-yl)amino)benzoic acid] | − (− indicates a selectivity of ≤10×) |  |  |
